# Binding of CDR-mutated scFvs to a peptide of the spike HR2 region

Reference: Engelhart et al. 2022, doi:10.1038/s41597-022-01779-4. File: FLAb, binding data.

Target: peptide PDVDLGDISGINAS, taken from heptad repeat 2 (HR2) of SARS-CoV-2 spike.

Ab-14 is the parent antibody, in scFv form: VH, then a 15-residue (Gly4Ser)3 linker, then VL. The heavy chain is unchanged in all variants.
VH: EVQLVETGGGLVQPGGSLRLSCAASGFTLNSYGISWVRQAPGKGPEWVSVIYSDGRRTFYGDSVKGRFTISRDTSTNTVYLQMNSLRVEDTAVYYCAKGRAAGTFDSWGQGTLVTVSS
VL: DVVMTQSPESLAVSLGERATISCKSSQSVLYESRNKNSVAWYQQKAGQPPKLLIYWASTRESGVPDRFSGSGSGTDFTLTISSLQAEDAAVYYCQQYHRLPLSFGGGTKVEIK

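Phage display of a naive human antibody library on the peptide gave the parent. In library AAYL50, one, two or three CDR residues were substituted; doubles and triples were drawn at random. The scFvs were displayed on barcoded MATa yeast, the peptide on MATalpha yeast. Mating (16 h, 30 °C) was followed by selection of diploids and sequencing of their barcodes. Read counts were normalised to the haploid input and turned into Kd by a linear fit to BCL2-family pairs of known affinity, for each replicate. Each pool was mated in three replicate cultures.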

The parent's light chain CDRs are KSSQSVLYESRNKNSVA, WASTRES, QQYHRLPLS; each variant's own CDRs replace them letter for letter. Scale: log10 of Kd in nM, estimated from mating counts; low values are strong binders. Averages over replicates are reported, and they cover detected replicates only. An entry "no signal" has no value in the source: the pair was not observed among the diploids in any replicate. This suggests poor binding but is not conclusive. Entries are sorted by rising average, undetected variants last. Parent in this assay: reference entry 0.65, copy in this library 1.68. Background: pairings of library AAYL50 with three empty control strains gave a value in 18% of cases (median 4.19, 5th percentile 2.99). Values in that range, when seen in few replicates, are hard to tell from nonspecific mating.

| CDR-L1 | CDR-L2 | CDR-L3 | log10 Kd (nM), mean | detected |
|---|---|---|---|---|
| KSSQDVLYESNNKNSVA | WASTRES | TQYHRLPLS | 0.19 | 3/3 |
| KSSNSVLYESRGKNSVA | WASTRES | QQYHRKPLS | 0.39 | 3/3 |
| KSSQSVLYESRNKNSVA | GASTRES | SLYHRLPLS | 0.54 | 3/3 |
| KSSQSVLYESRNKNSVA | GASTRES | QQYHCLPLS | 0.55 | 3/3 |
| KSSQSVLYEGRNNNSVA | WASTRES | QQYHRLPCS | 0.58 | 3/3 |
| KSSQSVLYERRNKVSVA | WASTRES | QQYNRLPLS | 0.62 | 3/3 |
| KCSQSVLMESRNKNSVA | WASTREG | QQYHRLPLS | 0.65 | 3/3 |
| KSSQSVLMESRNKNSVA | WASTRES | QQYHLLPLS | 0.85 | 3/3 |
| KSVQSVLYESRGKNSVA | WASQRES | QQYHRLPLS | 1.03 | 3/3 |
| KSAQSVLYESRNKNSVA | WASTREY | QQYHRLPLS | 1.04 | 3/3 |
| KSSQSVLYENRAKNSVA | WASTRMS | QQYHRLPLS | 1.35 | 3/3 |
| KSSQSVLYESRNKRSVA | CASTRES | QQYHRLPLS | 1.36 | 3/3 |
| KSSQSYLPESRNKNSVA | WASTRES | QQYHRLPLS | 1.52 | 3/3 |
| KSSQSVLTESRNKNSVA | TASTRES | QQYHRLPLE | 1.68 | 3/3 |
| KSSSSVLYESRNKNSVA | WASTRES | QQQHRLPLS | 1.77 | 3/3 |
| KSSQSWLYESRMKNSVA | WASTRES | QQYGRLPLS | 1.83 | 3/3 |
| KSWQSVLYESRNKNSVA | WASTRES | QQYERLPLS | 2.13 | 3/3 |
| KSSQSVLYEHRNKNSVA | WAHTRES | QQYCRLPLS | 2.14 | 3/3 |
| KSSQSVLYEWRNKGSVA | WASTRSS | QQYHRLPLS | 2.16 | 3/3 |
| KSSQSVRYESRNKNSVA | WAATRES | QQYHRFPLS | 2.30 | 3/3 |
| KSSQSVLYESRNKNSVA | WASKRWM | QQYHRLPLS | 2.45 | 3/3 |
| KPSQSVLYESRNKNSVA | WASTRES | QQYHRMPLH | 2.57 | 3/3 |
| KSSQSVLYNSRNKASVA | WASTRES | QQYHRLPLS | 2.72 | 1/3 |
| KSSQSVLYESRNKNSVA | WARTRES | QQLHRLWLS | 2.80 | 1/3 |
| KSSQSVLYESRGKPSVA | WASTRES | QQYHRLALS | 2.85 | 3/3 |
| MSSQSVNYESRNKNSVA | WASTRES | QQYHRLPKS | 2.97 | 3/3 |
| KSSQSVLYESRNHNSFA | WASTRES | QQYWRLPLS | 3.10 | 3/3 |
| KSSQFVLYESRNKNSVA | WASTSES | QQYCRLPLS | 3.27 | 1/3 |
| KSSQSVLYESRNDNSVA | WKSTRES | QQYHRLPLS | 3.55 | 3/3 |
| KSSVSVLYESRNKNSRA | WASTRES | QQYHALPLS | 3.69 | 1/3 |
| KSSQSVLYESRNWNSVA | WASTRES | QIYHRLCLS | 3.87 | 2/3 |
| KKSQSVLYESRNKNSVA | WASTRES | QQKHRLSLS | 3.97 | 2/3 |
| KSSQSVLYESRNKNSYA | WAKTRES | QQAHRLPLS | 4.18 | 2/3 |
| KSSQSVLYESRLKNSVA | WASTRES | QQRHRLPLY | 4.19 | 1/3 |
| KRSQSVLYESRNKNSVA | WASTRVS | QMYHRLPLS | 4.28 | 3/3 |
| KSSQSVLYETRNKNSVA | WASFRES | QQYHRLPVS | 4.30 | 1/3 |
| KSSQSVLYESRNKESVA | WASTRES | IQYHCLPLS | 4.31 | 2/3 |
| KSSQSVLYESRNYNFVA | WASTRES | QQYHHLPLS | 4.31 | 1/3 |
| KSSQSVLYESRNKNSVA | WPSTRES | QQYYRLPLS | 4.32 | 1/3 |
| KSSFSVLYESRNKNSVA | WASTRES | GQYFRLPLS | 4.36 | 2/3 |
| KSSQSVQYESRNKNAVA | WASTRES | QQYHRLYLS | 4.38 | 1/3 |
| KSSQSVLYESRNKNKVA | WASTRLS | QQYHRLCLS | 4.78 | 1/3 |
| KSSQSVLYESRLRNSVA | WASTRES | QQYERLPLS | no signal | 0/3 |
| KSSQSVLYESRNKNSVA | WASTYES | QQYHRLSLE | no signal | 0/3 |
| KSSQSVLAESRNKNSVA | WASTRES | QQMLRLPLS | no signal | 0/3 |
| KISQSCLYESRTKNSVA | WASTRES | QQYHRLPLS | no signal | 0/3 |
| KSWQSVLYESRNKNSVA | WASTRES | FCYHRLPLS | no signal | 0/3 |
| KSSQSVLYLSRNKQSVA | WASTREC | QQYHRLPLS | no signal | 0/3 |
| WSSQSVLYESRNKNSVA | WASTRNK | QQYHRLPLS | no signal | 0/3 |
| KSSQSVLYESRNKWSVA | WDSTRES | QQYHRLSLS | no signal | 0/3 |
| KSSQSVLYESRNKNSVA | WASTREC | SQYHRSPLS | no signal | 0/3 |
| KSSQSVLYESRYKNSVA | WASTYEP | QQYHRLPLS | no signal | 0/3 |
| KSSQSVLYESRNKPSEA | WASTRES | QQYKRLPLS | no signal | 0/3 |
| KSSQLVLYESRNKNSVA | WMSTREW | QQYHRLPLS | no signal | 0/3 |
| QCSQSVLYESRNKNSVA | WASTRES | QQYHRSPLS | no signal | 0/3 |
| KSSQSVLYESRNKNSVI | WASRRES | QQYHRLPLE | no signal | 0/3 |
| TSSQSVLYESRNKNPVA | WASTRES | QEYHRLPLS | no signal | 0/3 |
| KSSQSVLYESRNKNSVA | WASTRES | QQQHRLEES | no signal | 0/3 |
| KSSQSVLYESRNKNSVA | WASTRMS | QQYHFLPLS | no signal | 0/3 |
| KSSQSVLYESRNKNSVA | WASTRER | QFYHRLPHS | no signal | 0/3 |